According to ChEMBL document CHEMBL3885881, “DrugMatrix”:

Organism: Rattus norvegicus
Experiment: DrugMatrix - Regimen: Daily Repeat
Type: toxicity, organism-based, Sprague-Dawley
Parameters: regimen Daily Repeat, gender Male, age 6-8 weeks
Conditions: in vivo, po, tissue Plasma, route oral GAVAGE, dose level High
[1] = 33 mg/kg, 72 h, time 3 day, vehicle .5 % CMC

| Sequence | CHLORIDE [1] [MEQ/L] | POTASSIUM [1] [MEQ/L] | CHLORIDE ([…], dose 2.5 mg/Kg, time 14 day, vehicle 100 % WATER) [MEQ/L] |
| --- | --- | --- | --- |
| AURANOFIN | 105 | 6.89 |  |
| MERCURIC CHLORIDE |  |  | 104.6 |
